# Binding of CDR-mutated scFvs to a peptide of the spike HR2 region

Binding partner: SARS-CoV-2 spike HR2 peptide, sequence PDVDLGDISGINAS.

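Phage display of a naive human antibody library on the peptide gave the parent. Variants in AAYL49 differ from the parent at up to three CDR positions; double and triple changes were sampled at random. In AlphaSeq, yeast of one mating type display the scFv and yeast of the other type display the target. After mating in shaken culture at 30 °C for 16 h, diploids were selected and their barcode pairs sequenced. Scores were corrected for input abundance and mapped to Kd with protein pairs of known affinity run in the same pool. The assay was run in three technical replicates.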

Parent: Ab-14, a human scFv built as VH, the linker GGGGSGGGGSGGGGS, VL. Only the CDRs of the heavy chain vary.
VH: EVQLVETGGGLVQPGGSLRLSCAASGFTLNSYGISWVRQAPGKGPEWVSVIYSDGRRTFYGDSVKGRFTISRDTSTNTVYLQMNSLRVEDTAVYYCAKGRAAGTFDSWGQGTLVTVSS
VL: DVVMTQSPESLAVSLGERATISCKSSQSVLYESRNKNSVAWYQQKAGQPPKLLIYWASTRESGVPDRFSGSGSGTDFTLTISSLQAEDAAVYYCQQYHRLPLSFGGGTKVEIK

Each variant is given by its three heavy chain CDRs, as the data file delimits them; those of the parent are GFTLNSYGIS, VIYSDGRRTFYGDSVK, GRAAGTFDS. Scale: log10 of Kd in nM, estimated from mating counts; low values are strong binders. Averages over replicates are reported, and they cover detected replicates only. "not detected" means that the variant was in the library but no mating with the target was seen in any replicate; the authors take this as a sign of poor binding, and no number exists. Nonspecific signal, from three strains lacking the peptide, appeared in 15% of pairings of library AAYL49, centred on 4.06 (5% of these signals below 2.83); values are not corrected for it.

"mean, log10 nM",replicates with signal,CDR-H1,CDR-H2,CDR-H3
not detected,0/3,GGTLNSYGIS,VIYSDERRTFYGDSVK,GRAAGTNDS
not detected,0/3,GFTLNSYRIS,VIYSDGRRTFYGVSVK,GRAAGTFGS
not detected,0/3,GFTEPSYGIS,VIYSDGRATFYGDSVK,GRAAGTFDS
not detected,0/3,GFTLNSYGIS,KIYSDGRRNFYGDSVK,GRGAGTFDS
not detected,0/3,GFTLNSYGIS,VIYSDGRRDEYGDSVK,GRAAGTFQS
3.60,3/3,GVTLNSYGIS,VIYFDGRRTFYGDSVK,GRAAGTFDS
4.77,3/3,GHTLNSYTIS,VIYSDGRRTFYGDGVK,GRAAGTFDS
6.03,1/3,GFTQNSYGIS,VIYSDGQRTFYGDSVK,GRAAGHFDS
4.53,3/3,GFTLNSYGIS,VIYSDGRRTFYGDSRK,GRAAGKFDS
not detected,0/3,PFALNSYGIS,VIYKDGRRTFYGDSVK,GRAAGTFDS
1.97,3/3,GFTLNSYGIS,VIYSDGRRTFYGDSVK,VRLAGTFDA
not detected,0/3,GFTLNSELIS,VIYSDGRRHFYGDSVK,GRAAGTFDS
not detected,0/3,GFTLNSIGIS,QIYSDGRRTFYGDSVK,GRAAGTFDC
not detected,0/3,GWTLNSYGIS,VIYTDKRRTFYGDSVK,GRAAGTFDS
not detected,0/3,GFTLNSYGIY,VIYSDGRMTFYGDSVK,GRAANTFDS
5.54,2/3,GFTLTSYIIS,VIYSDGRRTFYGDSVK,GRAAMTFDS
4.75,1/3,GFTLNSYGIS,VSISDGRRTFYGDSVK,GRIAGTFDS
3.45,1/3,GFTLNSYPIS,VIYSDGRRTFYGDSHK,GRAAGTFDS
not detected,0/3,GFFLNSYGYS,VIYSDGRRTFYGDSVK,GRYAGTFDS
not detected,0/3,GFQLNSYGIS,VILCDGRRTFYGDSVK,GRAAGTFDS
not detected,0/3,GATLNSYGIS,VIYSDGRRTFYGDSVK,GRAQYTFDS
5.01,3/3,GFTGNSYGIS,VIYSDGRRTFYGDSPK,GRAAGTFIS
0.99,3/3,GFNLNSYGIS,VIYSDGRRTFYGDSVK,GRASGTFDS
3.34,3/3,GFTLCSYGIS,VIYSDGRRQFYGDSVK,GTAAGTFDS
not detected,0/3,GFTLNSYGIS,VIYSDGRRTFYGDSVK,GRKAGTFHE
not detected,0/3,GFTLNSYGKS,VYYSDGRRTFYGDCVK,GRAAGTFDS
3.87,3/3,GFTLNSWGIS,VIYSHGRRTMYGDSVK,GRAAGTFDS
3.77,3/3,GFTLNSYGIS,VIYSDGRRTFYGDSVK,GREAPTFDS
2.98,1/3,GFTLNSYGIV,VIYSDGQRTFYGDSIK,GRAAGTFDS
4.26,2/3,GFTLGSYGIS,VIYSDGRRGFYGDSVK,SRAAGTFDS
5.04,2/3,GFTLNYYGIS,VIYSHGRITFYGDSVK,GRAAGTFDS
not detected,0/3,GFCLNSYGIS,VIYSDGRRTFYGDSVK,GRAAGTFHS
not detected,0/3,GFTLNSYGIS,VIYSDGRRTFYPDWVV,GRAAGTFDS
not detected,0/3,GFTLNSYGQS,VIYSDGARTVYGDSVK,GRAAGTFDS
4.13,1/3,GFTLNSYGIS,VITSDARRTFYGDSVK,ARAAGTFDS
not detected,0/3,GSTLNSYGIS,VIYSDGNRTFYGDSVK,GRCAGTFDS
not detected,0/3,GFTLLSYGIS,VIYSDGIRTFYGDSVK,GRAARTFDS
not detected,0/3,GFTLHSYGIS,VIYSDIRRTFYGDSVK,GRAAGTFDS
4.73,1/3,GFTLNSYGIS,VIYSDGRRSFYGDSTK,GRFAGTFDS
3.01,3/3,GFLLPSYGIS,VIYSDGRRTWYGDSVK,GRAAGTFDS
3.11,1/3,GFTLNSYGYS,VIYSDGRRTFYGDSCK,GRAAYTFDS
0.84,3/3,GRTLNEYGIS,VIYSDGRRTFYGDSVK,GRNAGTFDS
3.26,3/3,GFTLNSYWIS,VIYSDGRRTRYGDQVK,GRAAGTFDS
3.69,1/3,GFTTNSYGIS,VIYSDGRRTFYGDSVK,GRRAGTFDE
1.80,3/3,GFTLNSYGIS,VIYSDGRRTFYEDSVK,RRAATTFDS
4.14,2/3,TFTLNSYGIS,VCYSDGRRTFYGDSKK,GRAAGTFDS
not detected,0/3,GFTLNSYGIS,VIYSDGRIRFYGDSVK,GRAAWTFDS
not detected,0/3,GFTLNSYGIS,WIYSDGRRTFYGDSMK,GCAAGTFDS
4.92,2/3,GFTLNSYGIS,VIYCDGRRTFYNDSVK,GRAAQTFDS
4.49,2/3,GFTLNCYGIS,VIYSDGRRTFYGDSVK,GRAAKTFDS
not detected,0/3,GFTCNSYGIS,GYYSDGRRTFYGDSVK,GRAAGTFDS
4.57,1/3,GFNLNYYGIS,VIYSDGRRTFYGDSNK,GRAAGTFDS
not detected,0/3,GKTLNSYGIS,MIYSDGRRTFYGDSVK,GRAYGTFDS
not detected,0/3,GFTLNSYGIS,NIISDGRRTFTGDSVK,GRAAGTFDS
4.17,1/3,GFTLNEYGIV,VIYSDDRRTFYGDSVK,GRAAGTFDS
not detected,0/3,GFTLNSSGIS,EIYSDGRRTFYGDSVK,RRAAGTFDS
4.31,2/3,GFTLNKYGIS,VISSDGRRTFYGDSVK,GRAAMTFDS
not detected,0/3,GFTLNSYGIS,RICSDGRRTFYGDSVK,GRHAGTFDS
2.91,3/3,FFTLNSVGIS,VIYSDGRRDFYGDSVK,GRAAGTFDS
2.42,1/3,GFTLNSYQKS,VIYSDGRRTRYGDSVK,GRAAGTFDS
not detected,0/3,GFTLNSYGIW,VIYSDGRRTFYGMAVK,GRAAGTFDS
4.69,2/3,GFTLNSYGIS,VIYSDGRRTRYGSSGK,GRAAGTFDS
5.05,1/3,GFTLTSYGIS,VNYSDGRRTFYGDPVK,GRAAGTFDS
not detected,0/3,GFTLNSYGIS,VFYSDGRRTFYVDSVW,GRAAGTFDS
not detected,0/3,GFTLNQYGIS,VIYSDGRRTFYGDSVK,GRAAGPFDS
1.52,3/3,GFTLNSFGIS,VIYSDGRRFFYGDSVA,GRAAGTFDS
not detected,0/3,GFTLNSDGIS,VIYSDGRRTFYGDSVK,GPAAGTFDR
5.38,2/3,GFTLNKYGIS,VIQSDGRRTFYGDSVK,GRAAGTFDS
3.02,2/3,GFTLVSYGIS,VSYSDGRRTFYGDSVK,GRAPGTFDS
3.95,1/3,GFTLNSYGIS,VIYSDGRRTFYGKSVK,GRAAGTFFS
not detected,0/3,GFTLNSGGIH,VIYSDFRRTFYGDSVK,GRAAGTFDS
0.54,3/3,GRDLNSYGIS,VIYSDGRRTFYGDSVK,GRLAGTFDS

Data: MIT Lincoln Laboratory AlphaSeq set, Engelhart et al. 2022, doi:10.1038/s41597-022-01779-4, as distributed in FLAb.